In brackets after ≈: the same amount, converted by molar mass.
Assay: Solubility assay (shake-flask method)
Format: physicochemical
Settings: thermodynamic from solid, water, stirred 24 hours, LCMS, read-out: aq. Solubility
Protocol: A calibration was made for each compound by diluting a 1 mM DMSO solution to 10, 25, 50, 75, and 100 μM and then measuring their relative UV absorbance by LC-MS using a Kinetex© Evo C-18 50 mm column running a gradient from 5%→90% MeCN in water over 4 minutes at 0.4 mL/min.
The aqueous solubility of each compound was measured using the shake-flask method. 1.0 mg of compound was diluted to 40 mM with water then stirred for 24 hours. Each solution was then filtered, diluted 10-fold, and analyzed by LCMS. The relative UV absorbance of each compound was then compared to its calibration curve to quantify its aqueous solubility.

Question: For `O=C1N[C@@H]2C(=C[C@H](O)[C@@H](O)[C@H]2O)c2cc3c(c(O)c21)OCO3` [compound 4, (+)-narciclasine, reference compound], which solubility at 24 h is on record?
Answer: The solubility at 24 h was 340 ± 20 µg/mL (≈ 1110 µM).

Source: patent US12084456B2, “Isocarbostyril alkaloids and functionalization thereof” (The Board of Trustees of the University of Illinois, priority 2018, dated 2024)
